# AlphaSeq binding of Ab-14 heavy chain variants to a spike HR2 peptide

Target: peptide PDVDLGDISGINAS, taken from heptad repeat 2 (HR2) of SARS-CoV-2 spike.

Ab-14 is the parent antibody, in scFv form: VH, then the linker GGGGSGGGGSGGGGS, then VL. The light chain is unchanged in all variants.
VH: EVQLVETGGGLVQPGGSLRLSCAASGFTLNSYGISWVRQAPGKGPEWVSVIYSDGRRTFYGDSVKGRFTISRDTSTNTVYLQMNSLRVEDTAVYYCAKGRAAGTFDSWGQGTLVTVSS
VL: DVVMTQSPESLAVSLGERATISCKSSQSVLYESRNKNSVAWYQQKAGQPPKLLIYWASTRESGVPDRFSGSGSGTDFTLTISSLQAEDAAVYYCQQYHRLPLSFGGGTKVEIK

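The parent was found by panning a naive human phage display library on the peptide. The variants were designed computationally from a first round of random CDR variants and then made and measured. Group labels follow the data file (Ctrl: baseline library sampled from a position-specific scoring matrix, with some repeated check sequences; Rand: our label for a block that the file lists under HC and that is probably the random mutants of the ten best first-round binders; En: ensemble of fine-tuned language models; GP: Gaussian process model; GPLM: also part of the Gaussian process libraries; HC: hill climbing; Gen: genetic algorithm; Gibbs: Gibbs sampling; a sequence that several methods proposed may carry one label only). In AlphaSeq, yeast of one mating type display the scFv and yeast of the other type display the target. Pairs that bind mate more often; barcode pairs of the diploids are counted by sequencing. Read counts were normalised to the haploid input and turned into Kd by a linear fit to BCL2-family pairs of known affinity, for each replicate. There are six technical replicates.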

Each variant is given by its three heavy chain CDRs, as the data file delimits them; those of the parent are GFTLNSYGIS, VIYSDGRRTFYGDSVK, GRAAGTFDS.
Affinities are written as log10 Kd with Kd in nM; a lower number is a better binder.
A mean of the replicates is given; it leaves out those without a signal.
"not detected" marks a missing value. The strain was present, yet no cells mated with the target were sequenced in any replicate, which points to weak or no binding.
A sequence measured in both rounds can read differently, since the two assays cover different ranges.
Of ten entries with the parent sequence, four were seen in most replicates (averages 0.34 to 2.37), three in one and three in none, so single entries are noisy.
Background: pairings of all heavy chain designs with three empty control strains gave a value in 1% of cases (median 2.08, 5th percentile 0.84). Values in that range, when seen in few replicates, are hard to tell from nonspecific mating.
In the paper, a design with two or fewer of six values counts as a poor binder.

| CDR-H1 | CDR-H2 | CDR-H3 | group | log10 Kd (nM), mean | replicates with signal |
|---|---|---|---|---|---|
| GFHLNTYGIS | VIYSDGMRTFYGDSVK | GRTAGTFDS | GP_Gibbs | 1.35 | 4 of 6 |
| GFTINSYGIS | VIYSDGRRTFYGDSVK | GRADGTFDS | Ctrl | not detected | 0 of 6 |
| GFHLNSYGIS | VIYSDGRRTFYADSVK | GRMAGTFDS | GPLM_Gen | 1.34 | 6 of 6 |
| GFTLNEYGIS | VIYSDGRRTFYSDSVK | GRAAGTFLS | Ctrl | 2.22 | 4 of 6 |
| GDDLENVGIS | VIYADGKRKQYAQNVK | GHTGGTFFD | En_Gibbs | 4.69 | 1 of 6 |
| GFSLNSYGIS | VIYSDGRRTFYGDSVK | GMTAGTFDQ | GP_Gibbs | 0.49 | 6 of 6 |
| GFSLNSYGIS | VIYSDGRRTFYGDKVK | GQAAGTFDK | GP_Gibbs | 2.16 | 2 of 6 |
| GFTLNEYGIS | VIYSDGRRTFYGDSVK | GRAAGKFMT | GP_HC | 0.33 | 5 of 6 |
| GFDLNSYGIS | VIYSDGRRTFYQDMVK | GEAAGTFDT | GP_Gibbs | 1.18 | 6 of 6 |
| GFTLNSYGIS | VIYADGRRTFYADSVK | GRAAGTFES | Ctrl | -0.37 | 2 of 6 |
| GFNLNSYGIS | VIYSDGRRTFYGDSVK | GNVAGTFDS | GPLM_Gibbs | 0.16 | 6 of 6 |
| GFDLNSYGIS | VIYSDGRRTFYGDSVK | GKAAGTFDE | GP_Gen | 0.50 | 6 of 6 |
| GFDLNEYGIS | VIYADGQRTAYVDSVK | GNVAGTFDM | En_Gen | -0.48 | 6 of 6 |
| GFQLNTYGIS | VIYSDGMRTFYGDSVK | GRTAGTFDS | GP_Gibbs | 1.92 | 6 of 6 |
| GVQLNDYGIS | VIYSDGERTFYGDSVK | GRGAGTFDS | Ctrl | not detected | 0 of 6 |
| KENIDEYGIS | VIYADGRRTAYTQSVK | GQNGGQIDV | En_Gibbs | not detected | 0 of 6 |
| GFTLNSYGIS | VIYSDGRRTFYMDSVK | GRAAGTFDS | Ctrl | 3.57 | 1 of 6 |
| GFDLNEYGIS | VIYADGRRTSYADSVK | GEEAGTFDV | En_HC | -0.44 | 6 of 6 |
| KFTLNSYGIS | VIYSDGRRTAYSDSVK | IRAAGTFMS | Ctrl | 0.71 | 3 of 6 |
| GFDLDEYGIS | VIYADGKRTAYSDSVK | GNTAGTFDL | En_Gen | 0.18 | 6 of 6 |
| GFDLTEYGIS | VIYADGVRCHYADNVK | GKSDGTNML | En_Gibbs | not detected | 0 of 6 |
| GATLNSYGIS | VIYSDGKRTFYGDSVK | GKAAGTFDS | Ctrl | 1.72 | 2 of 6 |
| GFTLNSYGIS | VIYSDGRRTAYADSVK | GRAAGTFFS | Ctrl | 4.71 | 1 of 6 |
| GFTLNEYGIS | VIYSDGRRTFYGDSVK | GQAAVTFDD | Rand | not detected | 0 of 6 |

The remaining entries, values ahead:

| log10 Kd (nM), mean | replicates with signal | CDR-H1 | CDR-H2 | CDR-H3 | group |
|---|---|---|---|---|---|
| 0.02 | 6 of 6 | GFDLNEYGIS | VIYADGRRTQYSDSVK | GEAAGTFDL | En_HC |
| -0.52 | 6 of 6 | GFDLNEYGIS | VIYADGQRKFYADSVK | GNVAGTFDV | En_Gen |
| 0.78 | 5 of 6 | GFSLNSYGIS | VIYSDGRRTFYTDSVK | GHAAGTFDS | GPLM_Gen |
| not detected | 0 of 6 | GFDLEEMGVS | VIYADGKRKAYKNKAK | GQTAGSFDV | En_Gibbs |
| 0.42 | 6 of 6 | GFTLNDYGIS | VIYSDGRRTFYSDSVK | GRLAGTFDT | GP_HC |
| 1.11 | 3 of 6 | GFHLNDYGIS | VIYSDGRRTFYVDSVK | GRLAGTFDS | GP_HC |
| 2.92 | 1 of 6 | GNTLNQDGIS | VIYSDGRRTFYSDSVK | GDAAGFFDS | Rand |
| -0.72 | 6 of 6 | GFDLNEYGIS | VIYADGVRTAYLDSVK | GQLAGTFDT | En_HC |
| 3.03 | 2 of 6 | GFDLGEYGIS | VIYADGVRQSYVDKVK | GANGVDSLV | En_Gibbs |
| 3.38 | 2 of 6 | GFEIDEYGIS | VIYADGIRTSYNDNVK | GQLGNAFDL | En_Gibbs |
| 1.24 | 5 of 6 | GFELNNYGIS | VIYSDGRRTFYHDSVK | GKAAGTFDS | GP_Gibbs |
| 1.50 | 2 of 6 | GFPLNSYGIS | VIYSDGRRTFYGDSVK | GYAAGTFDS | Ctrl |
| 1.22 | 6 of 6 | GFNLNSYGIS | VIYSDGRRTFYVDSVK | GSAAGTFDS | GPLM_Gibbs |
| -0.69 | 5 of 6 | GFDLNEYGIS | VIYADGKRTAYADSVK | GQTAGTFDQ | En_Gen |
| not detected | 0 of 6 | GFTLNSYGIS | VIYSDGRRTFYMDSVK | ERAAWTFDS | Ctrl |
| -0.66 | 6 of 6 | GFTLNEYGIS | VIYADGRRTFYGDSVK | GRAAGTFDT | GP_Gibbs |
| not detected | 0 of 6 | GFTLNDYQIS | VIYSDGRRTFAGDSVK | GRAALTFIS | Rand |
| not detected | 0 of 6 | GKDLEEYGIS | VIYADGRRSDYTDNVK | GHNGYIFMM | En_Gibbs |
| -0.61 | 6 of 6 | GFDLDEYGIS | VIYADGRRTAYANSVK | GEVAGTFDV | En_Gen |
| -0.41 | 6 of 6 | GFDINEYGIS | VIYADGRRTFYTDSVK | GENAGTFDS | En_HC |
| 1.11 | 5 of 6 | GFTLNSYGIS | VIYSDGRRTAYGDSVK | GRNAGTFPS | Ctrl |
| not detected | 0 of 6 | GFTLNDYGIS | VIYSDGRRTQYIDSVK | GLAAGNFDS | Rand |
| -0.30 | 6 of 6 | GFSLNSYGIS | VIYSDGRRTFYGDSVK | GNEAGTFDS | GPLM_Gen |
| 2.11 | 5 of 6 | GFTLNSYGIS | VIYSDGRRTFYTDSVK | GMKAGTFDS | GP_HC |

The first 3 variants above that were never detected:

| CDR-H1 | CDR-H2 | CDR-H3 | group | log10 Kd (nM), mean | replicates with signal |
|---|---|---|---|---|---|
| GFTINSYGIS | VIYSDGRRTFYGDSVK | GRADGTFDS | Ctrl | not detected | 0 of 6 |
| GVQLNDYGIS | VIYSDGERTFYGDSVK | GRGAGTFDS | Ctrl | not detected | 0 of 6 |
| KENIDEYGIS | VIYADGRRTAYTQSVK | GQNGGQIDV | En_Gibbs | not detected | 0 of 6 |

From the AlphaSeq antibody data of Li et al. 2023 (doi:10.1038/s41467-023-39022-2), copy in the FLAb collection.